# Entries after “also recorded” stand apart in the source; their conditions may differ.
# Columns and labels:
# [1] = Zeta potential measurements (Zetasizer Nano ZS90); format: physicochemical
# Experimental: Zeta Potential Measurements: Synthesized conjugates were characterized with respect to their ζ potential using a Zetasizer Nano ZS90 (Malvern Instruments, Malvern, UK). Ten microliter aliquots of nanoconjugate samples were diluted in 0.99 mL PBS, and the voltage applied was 150 mV. Data represent the mean of three measurements±their standard deviation.
# [2] = tested on: blood-brain barrier (BBB); test: BBB crossing of nanoconjugates with IgG cargo in normal brain; conditions: for BBB permeation efficacy of IgG nanoconjugates (in words): normal brain, 2 h post injection, dose 2× (0.137 μmol/kg) or 4× (0.274 μmol/kg)
# [3] = tested on: blood-brain barrier (BBB); test: BBB penetration: nanoconjugate fluorescence in brain parenchyma of healthy mice by optical imaging; conditions: i.v. 0.068-0.548 μmol/kg, 120 min, cortex, midbrain, hippocampus
# [4] = tail vein injection, dose 2× (0.137 μmol/Kg)
# [5] = Dynamic light scattering, hydrodynamic diameter and PDI; format: physicochemical; conditions: DLS in PBS, conjugates without attached rhodamine
# Experimental: Dynamic Light Scattering: Synthesized conjugates were characterized using a Zetasizer Nano ZS90 (Malvern Instruments, Malvern, UK). Ten microliter aliquots of nanoconjugate samples were diluted in 0.99 mL PBS and were measured 3 times using a clear cuvette. Data represent the mean of three measurements and polydispersity index.
# glioblastoma GL261 = conditions: injected dose 1×-4×
# [6] = mini nanodrugs containing IgG, voltage 6.92 mV
substance,measurement,setting,value
PMLA/LLL/D3(2%)IgG(0.2%)/rhodamine [P/LLL/D3/IgG],ζ potential,[1]; [6],−6.5 mV
same,BBB permeation efficacy of IgG nanoconjugates (in words),[2],larger drop compared to P/LLL/D3/rh
PMLA/cTfRL/rhodamine [P/cTfRL],ζ potential,"[1]; in PBS, voltage 150 mV",−15.2 mV
same,BBB penetration / nanoconjugate fluorescence in brain parenchyma (in words),[3],poor penetration into the brain parenchyma
PMLA/LLL/AP2/IgG(0.2%)/rhodamine [P/LLL/AP2/IgG],ζ potential,[1]; [6],−7.4 mV
same,half-life in blood,[4],40 min
same,slow decline / final retention in parenchyma,[2]; dose 2× (0.137 μmol/Kg),> 500 min
same,BBB permeation efficacy of IgG nanoconjugates (in words),[2],an increase was visible; also recorded: highest category
same,BBB permeation efficacy of IgG nanoconjugates (in words),[2]; listed as P/LLL (40%)/AP-2/IgG,permeates the BBB with higher efficacy compared to P/LLL (40%)/IgG
PMLA/LLL/AP7/rhodamine [P/LLL/AP7],ζ potential,"[1]; in PBS, voltage 150 mV",−5.48 mV
same,BBB penetration / nanoconjugate fluorescence in brain parenchyma (in words),[3],significantly less fluorescence than P/LLL/AP-2
PMLA/LLL/B6(1%)/rhodamine [P/LLL/B6-1],ζ potential,"[1]; in PBS, voltage 150 mV",−10.8 mV
PMLA/LLL/IgG(0.2%)/rhodamine [P/LLL/IgG],ζ potential,[1]; [6],−10.4 mV
same,BBB permeation efficacy of IgG nanoconjugates (in words),[2]; listed as P/LLL (40%)/IgG,permeate the BBB
same,BBB permeation efficacy of IgG nanoconjugates (in words),[2]; listed as P/LLL/IgG/rh,LLL-induced increase in permeation
PMLA/AP2/rhodamine [P/AP2],ζ potential,"[1]; in PBS, voltage 150 mV",−11.5 mV
same,Hydrodynamic diameter (volume mode),[5],5.93 nm
same,PDI,[5],(0.79)
same,PDI,[5]; listed as P/AP-2,0.79
same,AUC 0-inf,"IV tail vein, best fit curve",10900 ng·h/mL
same,AUC 0-t,"IV tail vein, best fit curve",10800 ng·h/mL
same,AUMC,"IV tail vein, best fit curve",19.3 μg/ml*h^2
same,C0,"IV tail vein, best fit curve",18500 ng/mL
same,CL,"IV tail vein, best fit curve",0.366 (μg)/(μg/ml)/h
same,CL2,"IV tail vein, best fit curve",2.60 (μg)/(μg/ml)/h
same,MRT,"IV tail vein, best fit curve",107 min
same,V,"IV tail vein, best fit curve",0.22 (μg)/(μg/ml)
same,V2,"IV tail vein, best fit curve",0.435 (μg)/(μg/ml)
same,Vss,"IV tail vein, best fit curve",0.65 μg/(μg/ml)
same,k10,"IV tail vein, best fit curve",1.69 h⁻¹
same,k12,"IV tail vein, best fit curve",12.0 h⁻¹
same,k21,"IV tail vein, best fit curve",6.0 h⁻¹
same,t½Alpha,"IV tail vein, best fit curve",2.16 min
same,t½Beta,"IV tail vein, second phase",78.6 min
same,Residual amount of nanoconjugate after 4 h from injection,"blood, 4 h",less than 6%
same,BBB penetration / nanoconjugate fluorescence in brain parenchyma (in words),[3],little potential for BBB penetration
same,BBB penetration / nanoconjugate fluorescence in brain parenchyma (in words),[3]; listed as P/AP-2/rhodamine,poor BBB penetration
PMLA/LLL/AP2(1%)/rhodamine [P/LLL/AP2-1],ζ potential,"[1]; in PBS, voltage 150 mV",−2.5 mV
same,selectivity R/T attainable per DoE contour plots,glioblastoma GL261,≤ 12
PMLA/rhodamine [P/Rh],ζ potential,"[1]; in PBS, voltage 150 mV",−22.9 mV
PMLA/LLL/D1/IgG(0.2%)/rhodamine [P/LLL/D1/IgG],ζ potential,[1]; [6],−7.8 mV
same,BBB permeation efficacy of IgG nanoconjugates (in words),[2],"the levels in the midbrain and cortex remained the same as P/LLL/D1/rh, while a slight drop was seen at the hippocampus"
PMLA/LLL/B6/IgG(0.2%)/rhodamine [P/LLL/B6/IgG],ζ potential,[1]; [6],−7.9 mV
same,BBB permeation efficacy of IgG nanoconjugates (in words),[2],significantly higher than P/LLL/B6 levels; also recorded: highest category
same,BBB permeation efficacy of IgG nanoconjugates (in words),[2]; listed as P/LLL/B6/IgG/rh,increased in a similar fashion
PMLA/LLL/AP2/IgG-Rhodamine [P/LLL/AP2/IgG-rh],BBB permeation efficacy of IgG nanoconjugates (in words),[2],lower
PMLA/LLL/D1/AON-Fluorescein(1%) [P/LLL/D1/AON-F],ζ potential,"[1]; in PBS, voltage 150 mV",−6.98 mV
PMLA/LLL/cTfRL/rhodamine [P/LLL/cTfRL],ζ potential,"[1]; in PBS, voltage 150 mV",−9.58 mV
same,BBB penetration / nanoconjugate fluorescence in brain parenchyma (in words),[3],fluorescence intensity measurements comparable to B6 in the midbrain and hippocampus
PMLA/LLL/AP2(4%)/rhodamine [P/LLL/AP2 (4%)],ζ potential,"[1]; in PBS, voltage 150 mV",−2.2 mV
same,BBB penetration / nanoconjugate fluorescence in brain parenchyma (in words),[3],decreased BBB penetration
PMLA/LLL/AP2(1%)/B6(1%)/rhodamine [P/LLL/AP2/B6],ζ potential,"[1]; in PBS, voltage 150 mV",−6.2 mV
same,selectivity R/T attainable per DoE contour plots,glioblastoma GL261,can be achieved

# From US20200206304A1, “METHODS AND COMPOSITIONS FOR EFFICIENT DELIVERY THROUGH MULTIPLE BIO BARRIERS” (Cedars-Sinai Medical Center, priority 2017, published 2020)
